Activity calls are given as the source filed them. The rule behind the calls is not given here.
What was measured:
[1] = target: Serine/threonine-protein kinase PAK 2 (Homo sapiens) (UniProt Q13177); assay: Binding affinity to PAK2 (unknown origin) at 300 nM by KINOMEscan analysis relative to control
[2] = target: Serine/threonine-protein kinase PAK 1 (Homo sapiens) (UniProt Q13153); assay: Binding affinity to PAK1 (unknown origin) at 300 nM by KINOMEscan analysis relative to control
[3] = target: Serine/threonine-protein kinase MRCK alpha (Homo sapiens) (UniProt Q5VT25); assay: Binding affinity to MRCK-alpha (unknown origin) at 300 nM by KINOMEscan analysis relative to control
[4] = target: Dual specificity testis-specific protein kinase 1 (Homo sapiens) (UniProt Q15569); assay: Binding affinity to TESK1 (unknown origin) at 300 nM by KINOMEscan analysis relative to control
[5] = target: Serine/threonine-protein kinase PAK 4 (Homo sapiens) (UniProt O96013); assay: Binding affinity to PAK4 (unknown origin) at 300 nM by KINOMEscan analysis relative to control
[6] = target: Cannabinoid receptor 1 (Homo sapiens) (UniProt P21554); assay: Agonist activity at human CB1 receptor at 10 uM by CEREP SafetyScreen44 panel analysis relative to control; assay type: functional; conditions: filed as agonist
[7] = target: Rho-associated protein kinase 1 (Homo sapiens) (UniProt Q13464); assay: Binding affinity to ROCK1 (unknown origin) at 300 nM by KINOMEscan analysis relative to control
[8] = target: T1, Calcium/calmodulin-dependent protein kinase type IV (Homo sapiens) (UniProt Q16566); assay: Binding affinity to CaMKIV (unknown origin) at 300 nM by KINOMEscan analysis relative to control
T1 sequence (whole entry): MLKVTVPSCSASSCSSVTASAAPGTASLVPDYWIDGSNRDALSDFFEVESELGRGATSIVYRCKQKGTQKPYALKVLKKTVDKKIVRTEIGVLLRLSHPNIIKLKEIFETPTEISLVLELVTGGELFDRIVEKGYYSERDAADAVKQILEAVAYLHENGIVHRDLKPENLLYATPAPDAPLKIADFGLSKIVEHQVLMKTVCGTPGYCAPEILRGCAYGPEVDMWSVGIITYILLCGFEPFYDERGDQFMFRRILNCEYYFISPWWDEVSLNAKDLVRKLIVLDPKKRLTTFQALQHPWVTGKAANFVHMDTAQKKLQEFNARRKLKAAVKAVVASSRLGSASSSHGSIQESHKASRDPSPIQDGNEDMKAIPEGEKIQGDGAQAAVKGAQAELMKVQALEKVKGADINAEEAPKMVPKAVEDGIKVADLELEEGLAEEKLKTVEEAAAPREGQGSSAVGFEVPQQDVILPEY

Chains of the proteins cited; added tags and fusions are not shown. Lines headed by an entry give the natural chain unless they say otherwise; changes in a name come on top.
UniProt Q13177, whole entry: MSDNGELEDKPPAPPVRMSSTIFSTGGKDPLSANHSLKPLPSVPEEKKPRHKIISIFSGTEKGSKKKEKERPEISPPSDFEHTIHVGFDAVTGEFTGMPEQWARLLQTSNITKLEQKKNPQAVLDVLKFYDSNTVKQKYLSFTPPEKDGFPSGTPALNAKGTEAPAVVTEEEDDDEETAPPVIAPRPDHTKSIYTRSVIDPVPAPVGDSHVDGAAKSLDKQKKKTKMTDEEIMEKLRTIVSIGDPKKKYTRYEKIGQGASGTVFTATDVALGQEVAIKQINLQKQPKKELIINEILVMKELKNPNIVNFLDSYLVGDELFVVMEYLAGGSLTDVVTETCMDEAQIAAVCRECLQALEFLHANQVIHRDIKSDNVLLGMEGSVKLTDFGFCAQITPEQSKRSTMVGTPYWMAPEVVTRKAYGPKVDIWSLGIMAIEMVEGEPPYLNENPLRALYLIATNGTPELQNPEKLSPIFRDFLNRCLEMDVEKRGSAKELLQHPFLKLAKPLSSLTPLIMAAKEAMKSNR
UniProt Q13153, whole entry: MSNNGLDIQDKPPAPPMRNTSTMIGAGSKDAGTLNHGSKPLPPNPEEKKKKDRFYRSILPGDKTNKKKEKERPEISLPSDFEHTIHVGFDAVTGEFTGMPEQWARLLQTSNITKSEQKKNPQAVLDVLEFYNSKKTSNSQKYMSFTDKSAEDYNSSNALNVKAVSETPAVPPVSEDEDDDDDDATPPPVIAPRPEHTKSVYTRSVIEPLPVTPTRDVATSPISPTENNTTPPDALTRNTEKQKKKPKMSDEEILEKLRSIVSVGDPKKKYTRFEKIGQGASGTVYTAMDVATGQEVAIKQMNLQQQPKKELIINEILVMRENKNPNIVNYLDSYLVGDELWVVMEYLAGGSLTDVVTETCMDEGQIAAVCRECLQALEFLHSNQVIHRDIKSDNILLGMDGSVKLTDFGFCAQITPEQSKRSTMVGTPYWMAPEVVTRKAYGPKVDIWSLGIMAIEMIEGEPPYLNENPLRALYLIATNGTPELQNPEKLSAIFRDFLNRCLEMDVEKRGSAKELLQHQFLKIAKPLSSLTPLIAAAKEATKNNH
UniProt Q5VT25: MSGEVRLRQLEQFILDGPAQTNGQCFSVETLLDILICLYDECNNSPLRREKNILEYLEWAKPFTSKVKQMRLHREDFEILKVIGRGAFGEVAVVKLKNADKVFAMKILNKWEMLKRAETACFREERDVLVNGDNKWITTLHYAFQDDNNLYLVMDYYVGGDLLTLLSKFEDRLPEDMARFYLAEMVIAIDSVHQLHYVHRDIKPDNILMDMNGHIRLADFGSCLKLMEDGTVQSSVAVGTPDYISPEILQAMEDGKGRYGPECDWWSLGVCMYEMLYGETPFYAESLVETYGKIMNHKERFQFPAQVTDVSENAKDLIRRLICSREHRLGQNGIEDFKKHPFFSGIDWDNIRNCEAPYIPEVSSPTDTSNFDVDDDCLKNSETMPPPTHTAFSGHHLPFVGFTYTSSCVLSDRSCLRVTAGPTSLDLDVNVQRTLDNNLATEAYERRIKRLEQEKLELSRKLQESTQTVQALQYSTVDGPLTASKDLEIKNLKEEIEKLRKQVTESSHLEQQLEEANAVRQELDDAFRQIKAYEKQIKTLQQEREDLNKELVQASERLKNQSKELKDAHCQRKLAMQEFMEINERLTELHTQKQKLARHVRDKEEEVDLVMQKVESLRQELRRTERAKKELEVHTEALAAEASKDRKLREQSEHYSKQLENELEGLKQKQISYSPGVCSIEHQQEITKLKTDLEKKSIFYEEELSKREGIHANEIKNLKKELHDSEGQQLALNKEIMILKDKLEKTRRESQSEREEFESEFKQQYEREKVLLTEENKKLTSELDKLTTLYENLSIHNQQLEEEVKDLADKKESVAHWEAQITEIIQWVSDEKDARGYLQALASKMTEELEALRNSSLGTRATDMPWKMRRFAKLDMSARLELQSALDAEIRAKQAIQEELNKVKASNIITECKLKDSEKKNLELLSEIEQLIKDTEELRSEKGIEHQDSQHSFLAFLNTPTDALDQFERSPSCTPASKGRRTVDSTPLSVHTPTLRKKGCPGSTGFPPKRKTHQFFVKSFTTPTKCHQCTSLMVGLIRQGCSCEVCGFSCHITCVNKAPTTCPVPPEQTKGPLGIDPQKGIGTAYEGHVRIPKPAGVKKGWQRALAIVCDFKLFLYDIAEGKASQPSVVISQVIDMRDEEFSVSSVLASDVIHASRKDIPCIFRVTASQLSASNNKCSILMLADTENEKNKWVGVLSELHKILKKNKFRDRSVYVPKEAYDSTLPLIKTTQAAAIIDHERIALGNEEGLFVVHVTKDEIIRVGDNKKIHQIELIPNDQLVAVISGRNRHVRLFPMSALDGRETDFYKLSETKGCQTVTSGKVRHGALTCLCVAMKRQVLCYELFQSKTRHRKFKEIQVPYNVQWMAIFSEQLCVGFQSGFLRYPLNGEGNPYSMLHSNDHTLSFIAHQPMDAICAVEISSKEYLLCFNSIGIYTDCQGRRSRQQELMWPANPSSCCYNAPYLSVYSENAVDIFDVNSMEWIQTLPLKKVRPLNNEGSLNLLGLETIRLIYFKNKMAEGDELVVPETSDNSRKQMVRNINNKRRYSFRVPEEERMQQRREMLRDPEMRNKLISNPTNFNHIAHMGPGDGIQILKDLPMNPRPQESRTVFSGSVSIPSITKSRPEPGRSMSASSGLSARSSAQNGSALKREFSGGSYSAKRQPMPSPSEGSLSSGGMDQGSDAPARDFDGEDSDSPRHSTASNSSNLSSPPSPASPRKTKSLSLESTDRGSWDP
UniProt Q15569: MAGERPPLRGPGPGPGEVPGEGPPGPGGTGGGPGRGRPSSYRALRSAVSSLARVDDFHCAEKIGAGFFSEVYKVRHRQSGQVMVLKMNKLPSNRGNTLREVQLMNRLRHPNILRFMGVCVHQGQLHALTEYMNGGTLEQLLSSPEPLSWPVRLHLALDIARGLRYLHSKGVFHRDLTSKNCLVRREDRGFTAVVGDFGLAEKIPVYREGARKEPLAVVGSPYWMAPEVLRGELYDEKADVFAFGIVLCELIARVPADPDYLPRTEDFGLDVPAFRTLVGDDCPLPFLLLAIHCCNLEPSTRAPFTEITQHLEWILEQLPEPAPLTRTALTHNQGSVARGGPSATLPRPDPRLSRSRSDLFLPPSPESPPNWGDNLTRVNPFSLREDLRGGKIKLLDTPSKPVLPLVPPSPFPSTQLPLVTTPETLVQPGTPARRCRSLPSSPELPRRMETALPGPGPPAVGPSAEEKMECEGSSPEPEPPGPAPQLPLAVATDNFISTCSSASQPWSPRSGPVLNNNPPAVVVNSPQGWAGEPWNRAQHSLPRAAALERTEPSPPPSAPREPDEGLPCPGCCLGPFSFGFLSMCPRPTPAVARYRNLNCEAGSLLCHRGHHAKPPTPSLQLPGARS
UniProt O96013: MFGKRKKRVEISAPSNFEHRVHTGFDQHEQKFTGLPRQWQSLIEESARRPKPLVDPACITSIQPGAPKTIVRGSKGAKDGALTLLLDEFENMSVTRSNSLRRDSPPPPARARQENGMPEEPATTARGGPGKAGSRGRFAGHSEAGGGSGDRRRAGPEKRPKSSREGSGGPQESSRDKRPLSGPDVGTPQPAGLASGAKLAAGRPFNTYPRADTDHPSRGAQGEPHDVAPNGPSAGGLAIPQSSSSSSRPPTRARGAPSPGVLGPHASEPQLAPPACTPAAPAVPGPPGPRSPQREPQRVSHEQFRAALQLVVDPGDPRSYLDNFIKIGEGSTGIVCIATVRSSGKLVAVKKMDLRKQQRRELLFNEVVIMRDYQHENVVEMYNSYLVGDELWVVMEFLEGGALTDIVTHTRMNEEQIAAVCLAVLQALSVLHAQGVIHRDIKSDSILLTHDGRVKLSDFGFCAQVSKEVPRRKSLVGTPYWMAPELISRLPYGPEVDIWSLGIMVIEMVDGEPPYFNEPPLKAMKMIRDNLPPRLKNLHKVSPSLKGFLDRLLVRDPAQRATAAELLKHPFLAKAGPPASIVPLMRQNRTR
UniProt P21554, whole entry: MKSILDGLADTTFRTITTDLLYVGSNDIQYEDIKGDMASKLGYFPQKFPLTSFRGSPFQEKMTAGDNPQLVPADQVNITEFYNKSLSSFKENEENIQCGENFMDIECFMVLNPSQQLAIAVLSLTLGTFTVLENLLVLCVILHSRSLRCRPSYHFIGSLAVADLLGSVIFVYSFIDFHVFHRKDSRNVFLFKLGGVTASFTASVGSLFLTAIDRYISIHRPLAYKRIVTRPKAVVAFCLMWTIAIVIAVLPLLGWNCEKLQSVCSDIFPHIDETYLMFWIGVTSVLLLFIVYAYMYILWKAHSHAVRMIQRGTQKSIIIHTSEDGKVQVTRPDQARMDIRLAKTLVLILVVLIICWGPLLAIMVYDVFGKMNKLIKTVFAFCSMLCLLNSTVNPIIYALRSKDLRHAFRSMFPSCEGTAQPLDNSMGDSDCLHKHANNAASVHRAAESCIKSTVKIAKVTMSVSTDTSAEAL
UniProt Q13464: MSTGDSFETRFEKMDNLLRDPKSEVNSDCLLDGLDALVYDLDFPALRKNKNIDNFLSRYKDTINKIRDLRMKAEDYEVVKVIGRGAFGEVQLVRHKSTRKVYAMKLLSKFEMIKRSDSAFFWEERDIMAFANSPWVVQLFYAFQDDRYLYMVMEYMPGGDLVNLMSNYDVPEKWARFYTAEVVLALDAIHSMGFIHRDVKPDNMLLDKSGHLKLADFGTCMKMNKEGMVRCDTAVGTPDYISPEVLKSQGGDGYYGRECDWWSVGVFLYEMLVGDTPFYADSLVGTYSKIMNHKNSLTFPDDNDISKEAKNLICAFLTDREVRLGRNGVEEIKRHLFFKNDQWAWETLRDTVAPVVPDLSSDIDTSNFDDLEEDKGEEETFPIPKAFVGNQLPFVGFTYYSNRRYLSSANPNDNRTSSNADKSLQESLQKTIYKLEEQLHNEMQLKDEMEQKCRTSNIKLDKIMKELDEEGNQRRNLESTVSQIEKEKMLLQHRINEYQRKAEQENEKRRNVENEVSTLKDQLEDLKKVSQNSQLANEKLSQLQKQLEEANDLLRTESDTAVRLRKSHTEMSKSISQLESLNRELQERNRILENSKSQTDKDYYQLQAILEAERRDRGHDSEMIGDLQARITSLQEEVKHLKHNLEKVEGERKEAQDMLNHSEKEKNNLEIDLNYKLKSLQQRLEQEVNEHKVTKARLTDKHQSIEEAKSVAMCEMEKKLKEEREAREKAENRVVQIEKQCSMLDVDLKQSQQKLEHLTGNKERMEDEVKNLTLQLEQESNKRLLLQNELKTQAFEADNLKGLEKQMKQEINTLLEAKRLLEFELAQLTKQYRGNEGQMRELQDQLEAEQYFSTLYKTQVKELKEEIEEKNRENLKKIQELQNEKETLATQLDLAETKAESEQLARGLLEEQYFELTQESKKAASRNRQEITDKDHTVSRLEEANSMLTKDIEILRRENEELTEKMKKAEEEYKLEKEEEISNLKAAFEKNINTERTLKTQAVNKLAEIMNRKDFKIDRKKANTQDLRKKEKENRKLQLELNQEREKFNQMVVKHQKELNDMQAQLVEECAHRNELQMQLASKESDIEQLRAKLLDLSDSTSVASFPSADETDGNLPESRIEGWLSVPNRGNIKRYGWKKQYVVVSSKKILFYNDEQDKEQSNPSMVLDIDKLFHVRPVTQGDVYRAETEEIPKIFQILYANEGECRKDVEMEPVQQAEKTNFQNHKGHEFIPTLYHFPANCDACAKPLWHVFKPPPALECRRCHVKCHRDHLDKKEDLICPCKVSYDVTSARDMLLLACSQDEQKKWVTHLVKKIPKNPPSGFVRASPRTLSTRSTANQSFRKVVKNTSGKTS

[9] = target: Rho-associated protein kinase 2 (Homo sapiens) (UniProt O75116); assay: Binding affinity to ROCK2 (unknown origin) at 300 nM by KINOMEscan analysis relative to control

With O=C(c1ccc(S(=O)(=O)Nc2ccccc2)cc1)N(Cc1ccc(NCCO)cc1)CC1CC1 as the molecule, how does the Activity [1] read?
Its Activity is “inactive”.

And the Activity [2]?
Its Activity is “inactive”.

What about the Activity [3] of the same molecule?
Its Activity is “inactive”.

What about the Activity [4] of the same molecule?
Its Activity is “inactive”.

What about the Activity [5] of the same molecule?
Its Activity is “inactive”.

What about the Activity [6] of the same molecule?
The Activity was over 50%.

What about the Activity [7] of the same molecule?
The Activity was “inactive”.

And the Activity [8]?
The Activity was “inactive”.

And the Activity [9]?
Its Activity is “inactive”.
